Antibody variant affinities, Ab-14 light chain, assay B

The measurements come from Li et al. 2023 (doi:10.1038/s41467-023-39022-2) through the FLAb antibody collection.

Antigen: PDVDLGDISGINAS, a 14-residue peptide of the SARS-CoV-2 spike HR2 region.

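These sequences belong to a second round, designed from the earlier measurements on random variants of the parent. Several design methods are mixed in this list. The assay is AlphaSeq: two haploid yeast populations carry antibody and antigen on their surface. The frequency of each diploid, read from paired DNA barcodes, reflects how well the two displayed proteins bind. Read counts were normalised to the haploid input and turned into Kd by a linear fit to BCL2-family pairs of known affinity, for each replicate. The assay was run in six technical replicates.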

Parent scFv Ab-14: VH joined to VL by the linker GGGGSGGGGSGGGGS. Changes lie in the light chain CDRs alone.
VH: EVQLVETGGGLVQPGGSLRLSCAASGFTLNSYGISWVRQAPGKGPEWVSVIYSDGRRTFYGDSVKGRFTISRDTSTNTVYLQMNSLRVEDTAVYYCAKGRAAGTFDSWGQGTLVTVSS
VL: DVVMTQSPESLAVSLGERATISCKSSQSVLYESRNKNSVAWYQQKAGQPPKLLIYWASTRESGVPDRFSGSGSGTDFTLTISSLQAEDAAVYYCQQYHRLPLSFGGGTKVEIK

Variants are written as CDR1, CDR2 and CDR3 of the light chain (limits as in the source). Parent: KSSQSVLYESRNKNSVA, WASTRES, QQYHRLPLS.
Variants here have at most six changes.
Values are apparent Kd, the geometric mean of the replicates that gave a signal; lower means stronger binding.
A pair that was not seen in any replicate is written "nd"; this usually means weak binding, but a binder can also be missed.

* KSSQDVEEESTNKNSVA / DASTRES / QQYHRLPLS: 3.5 nM (6 of 6 replicates)
* KSSISYLYESRNKNSVA / LHSTRES / QQYHRLPLS: nd (0 of 6 replicates)
* KVSQSQLYESRNKNNVA / DASTRES / QQYHRLPLS: 320 pM (6 of 6 replicates)
* KSSQSVFYDSSNMNSVA / WASTRED / QQYHRLPLS: 23 nM (6 of 6 replicates)
* HSSQSELYESRNKNSVA / NASQRES / QQYHRLPLS: 780 pM (6 of 6 replicates)
* VLQQSVLYESRNKNSVA / DASKREE / QQYHRLPLS: 820 pM (6 of 6 replicates)
* KSSQSFLYESRNKNSVA / EASTRES / QQYHRLPLS: 1.3 nM (6 of 6 replicates)
* KISQEKLYESRNKNSVA / DASTRES / QQYHRLPLS: 250 pM (6 of 6 replicates)
* KSSTSVWFESRNQNSVA / WASTRES / QQYNRLPLS: 19 nM (6 of 6 replicates)
* KSYQSVLYESVMPNSVA / WASTRSS / GQYHRLPLS: nd (0 of 6 replicates)
* KVQQSNLYESRNKNSVA / NASQRES / QQYHRLPLS: 610 pM (6 of 6 replicates)
* KLKQSVDYESRNKNSVA / NASTRES / QQYHRLPLS: 11 nM (6 of 6 replicates)
* KLSEDALYESRNKNSVA / QASTREV / QQYHRLPLS: 320 pM (6 of 6 replicates)
* KLQQSVQYESRNKNSVA / NASQRES / QQYHRLPLS: 1.9 nM (6 of 6 replicates)
* KQSQSVLYESRNKNAVA / DASTRES / QMYHRLPLS: 870 pM (6 of 6 replicates)
* KLSQSELYESRNKNSVA / NASQREV / QQYHRLPLS: 1.7 nM (6 of 6 replicates)
* KLSQLMLYESRNKNSVA / EASTRLS / QDYHRLPLS: 880 pM (6 of 6 replicates)
* KLMQSVLYESRNKNSVA / NASTRMS / QQYHRLPLS: 1.2 nM (6 of 6 replicates)
* KSSQSVFYESRNENSVA / WASTRES / QQYHRLPLS: 20 nM (6 of 6 replicates)
* KSSQSVLYESRVKNSVA / WASTRES / QQYHRLPHS: 69 nM (1 of 6 replicates)
* KSSQSVLYESRNKHSVA / WASTRES / QQYHQVPLT: nd (0 of 6 replicates)
* KVSQLGLYGSRNKNSVA / EASTRES / QQYHRLPLD: 7.0 nM (6 of 6 replicates)
* KSSQSVLYESRNKNSVA / FASTRIS / QQYHRLPLS: 110 nM (1 of 6 replicates)
* KSLQSVLYESRNFNSVA / DASTRED / QQYHRLPLS: 1.9 nM (6 of 6 replicates)
* KSSQQVLYESRNKNSVA / RASTRES / QQYHRLPLS: nd (0 of 6 replicates)
* KSSQSVYYESVDKNSVA / WASTRES / QQYHGLPLS: 250 nM (6 of 6 replicates)
* KQSQADLYESRNKNSVA / DANTRES / QQYHRLPLS: 3.1 nM (6 of 6 replicates)
* DSSQSVLYESRNKNSVA / GASTRES / CQYHRLPLS: 260 nM (4 of 6 replicates)
* KMSQSDLVESNNKNSVA / WASTRES / QQYHRWPLS: 440 nM (6 of 6 replicates)
* KSSQSVWWESRNKNSVA / EASTRES / QCYHRLPLS: 13 nM (6 of 6 replicates)
* KSSQDVLYESRTKNSVA / WASTRES / QQYHRLPLS: 18 nM (2 of 6 replicates)
* KISQSVLYESRAQNSVA / EASTRCD / QQYHRLPLS: 710 pM (6 of 6 replicates)
* KLSQSVLFESRNKNSVA / DASTRES / QQYHRLPLS: 340 pM (6 of 6 replicates)
* KSSISYLYESANKNSVA / NGSTRES / QQYHRLPLS: 1.8 nM (6 of 6 replicates)
* KSSQSVPYESHNKNSVA / NASTRMS / QQYHRLPLS: 1.2 nM (6 of 6 replicates)
* KLQQSVLYESRNKNSVA / DASTRLS / QQYHRLPLS: 360 pM (6 of 6 replicates)
* AVSQGWLYESRNKNSVA / GASTRED / QQYHRLPLS: 3.1 nM (6 of 6 replicates)
* KSSQSVLYESRNKNWVA / QASTRES / QQYHRLPLS: 130 nM (2 of 6 replicates)
* KLPQSDLYESRNKNSVA / HASQRES / QQYHRLPLS: 4.6 nM (6 of 6 replicates)
* KQSQEWLYESRNKNSVA / DASTRES / QQYHRLPLS: 330 pM (6 of 6 replicates)
* KTSQSVLFEPRNKNSVA / DASTRES / QQYHRLPLS: 2.7 nM (6 of 6 replicates)
* KSSQSVLYESRNHNSVA / WASTRES / QQYHRLPLS: 38 nM (1 of 6 replicates)
* KVSQSVLGESRNKNSVA / WADTRES / QWYMRLPLS: 44 nM (6 of 6 replicates)
* KLSQSVLYEMRNKNSVA / GASTRES / QQYHRLPLS: 360 pM (6 of 6 replicates)

The 4 strongest on average among those seen in every replicate, once more:

{"CDR-L1": "KISQEKLYESRNKNSVA", "CDR-L2": "DASTRES", "CDR-L3": "QQYHRLPLS", "Kd (apparent)": "250 pM", "replicates with signal": "6/6"}
{"CDR-L1": "KLSEDALYESRNKNSVA", "CDR-L2": "QASTREV", "CDR-L3": "QQYHRLPLS", "Kd (apparent)": "320 pM", "replicates with signal": "6/6"}
{"CDR-L1": "KVSQSQLYESRNKNNVA", "CDR-L2": "DASTRES", "CDR-L3": "QQYHRLPLS", "Kd (apparent)": "320 pM", "replicates with signal": "6/6"}
{"CDR-L1": "KQSQEWLYESRNKNSVA", "CDR-L2": "DASTRES", "CDR-L3": "QQYHRLPLS", "Kd (apparent)": "330 pM", "replicates with signal": "6/6"}

The range of this assay differs from that of the first round, and the authors advise against merging the two.
In the paper, a design with two or fewer of six values counts as a poor binder.
Of ten entries with the parent sequence, four were seen in most replicates (averages 2.2 nM to 240 nM), three in one and three in none, so single entries are noisy.
Nonspecific signal, from three strains lacking the peptide, appeared in 4% of pairings of all light chain designs, centred on 430 nM (5% of these signals below 38 nM); values are not corrected for it.